Results published in PubChem BioAssay AID1777 (Sanford-Burnham Center for Chemical Genomics, 2009).
Some of the results follow. Measured potencies and affinities stand elsewhere. Active and inactive are the calls of the source. Cut-off read from the data, not from the text of the source: active = activation above about 50% (passing the limit was not always enough); inactive = the rest.

Sequences of proteins named here, by UniProt entry; tags and fusion partners are left off. A change or cut given only in a name is not applied to a line headed by its entry.
UniProt P41145: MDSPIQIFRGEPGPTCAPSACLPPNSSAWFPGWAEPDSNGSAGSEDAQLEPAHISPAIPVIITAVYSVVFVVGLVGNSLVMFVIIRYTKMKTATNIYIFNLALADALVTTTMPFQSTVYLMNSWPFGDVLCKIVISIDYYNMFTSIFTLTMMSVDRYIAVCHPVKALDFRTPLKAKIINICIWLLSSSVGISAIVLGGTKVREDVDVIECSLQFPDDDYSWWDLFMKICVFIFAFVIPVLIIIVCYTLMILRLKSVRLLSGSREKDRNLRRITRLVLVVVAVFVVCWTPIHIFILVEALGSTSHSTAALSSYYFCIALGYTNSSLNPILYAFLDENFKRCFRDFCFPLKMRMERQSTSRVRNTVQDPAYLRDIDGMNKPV

biological target: Kappa-type opioid receptor (Homo sapiens) (UniProt P41145); assay: KOR agonists, beta-arrestin recruitment, primary screen, cell-based, luminescence, uHTS (AID 1777); conditions: at 10 µM, hits give high values

Row | SMILES | activation
1 | Nc1ncnc2c1ncn2CCN1CCCCC1 | inactive: 4.8%
2 | Cc1c2non([O-])c-2c(C)[n+](=O)[n+]1[O-] | inactive: 0.6%
3 | O=C(Cn1c(CO)nc2ccccc21)NCCc1ccc(F)cc1 | inactive: -0.8%
4 | CC(C)[C@H](NC(=O)N1CCn2c1nc1ccccc12)C(=O)NCC1CCCO1 (some centres undefined) | inactive: 0.8%
5 | Cc1ccc(-c2csc(N3CCN(c4cc5c(cc4Cl)nc(-c4ccncc4)n5CCN4CCCCC4)CC3)n2)cc1 | inactive: 1.2%
6 | O=C(NC(Sc1ccncn1)C(Cl)(Cl)Cl)c1ccccc1 (centres undefined) | inactive: 0.2%
7 | Oc1ccccc1CNc1ccccn1 | inactive: 1.1%
8 | CCC(=O)N1c2ccc(S(=O)(=O)CCC(=O)N3CCn4c3nc3ccccc34)cc2CC1C (centres undefined) | inactive: 7.6%
9 | COCCN1CCn2c(nc3cc([N+](=O)[O-])ccc32)C1 | inactive: -3.6%
10 | Cc1ccccc1C(=O)Nc1cccc(NC(=O)Cn2cnc3c(=O)n(C)c(=O)n(C)c32)c1 | inactive: -0.8%
11 | CC(C)CC(=O)NC(Sc1ccc(Cl)cc1)C(Cl)(Cl)Cl (centres undefined) | inactive: -0.4%
12 | N=c1n(CCOc2ccccc2)c2ccccc2n1CCN1CCOCC1 | inactive: -10.2%
13 | CSCC[C@H](NC(=O)N1CCn2c1nc1ccccc12)C(=O)NCc1ccc(C)cc1 | inactive: -1.2%
14 | Nc1cc(N)c2nonc2c1[N+](=O)[O-] | inactive: -2.5%
15 | O=C(Nc1nc2ccccc2n1CCN1CCOCC1)c1ccc(Cl)cc1 | inactive: 6.5%
16 | CCCCCCNCCn1cnc2c(N)ncnc21 | inactive: -0.1%
17 | CCc1cccc(CC)c1NC(=O)Cn1c(-c2ccccc2Cl)nc2ccccc21 | inactive: 0.1%
18 | COCCCNC(=O)CC1C(=O)N(Cc2ccccc2)C(C)c2nc3ccccc3n21 (centres undefined) | inactive: -3%
19 | O=C1Cn2c(nc3ccccc32)N1c1ccccc1F | inactive: -2.8%
20 | N=c1n(CCCOc2ccc(F)cc2)c2ccccc2n1CC(N)=O | inactive: -0.5%
21 | Cc1n[nH]c(C)c1CCC(=O)N/N=C/C=C/c1ccccc1 | inactive: -1.2%
22 | COc1cccc(/C=N/NC(=O)Cn2cnc3c2c(=O)n(C)c(=O)n3C)c1OC | inactive: -1%
23 | CCC(=O)Nc1ccc2c(c1)nc1n2CCN(CCOC)C1 | inactive: 0%
24 | CCCCNc1nc2ccccc2n1CC(=O)N1CCc2ccccc2C1 | inactive: 1%

Row | SMILES | activation
25 | C=CCOC(=O)C1=C(C)N=C2SCCC(=O)N2C1/C=C/c1ccccc1OC (centres undefined) | inactive: 12.6%
26 | Cc1nc2ccc(NC(=O)Cn3cnc4c3c(=O)n(C)c(=O)n4C)cc2s1 | inactive: -3.4%
27 | CC1CCCC(C)N1C(=O)Cn1c(SCC(=O)NCc2ccc3c(c2)OCO3)nc2ccccc21 (centres undefined) | inactive: -3.5%
28 | O=C(Cn1c(-c2cscn2)nc2ccccc21)Nc1ccc(Cl)cc1 | inactive: -3.9%
29 | CCCn1c(=O)[nH]c(=O)c2c1nc(-c1ccccc1)n2CCN1CCOCC1 | inactive: 7.9%
30 | CCCCC(=O)N/N=C(C)/C=C/c1ccccc1F | inactive: 1.3%
31 | CCN(CC)CCn1c(/N=C/c2cc(Br)ccc2O)nc2ccccc21 | inactive: -1.5%
32 | Cn1c(=O)c2ncn(CC(=O)NCCC3=CCCCC3)c2n(C)c1=O | inactive: -9.4%
33 | CCOc1ccc(C(O)Cn2c(=N)n(CCN3CCCCC3)c3ccccc32)cc1 (centres undefined) | inactive: 2.4%
34 | Cc1ccc(C(=O)NC(C)c2nc3ccccc3n2CC(=O)Nc2c(C)cc(C)cc2C)cc1 (centres undefined) | inactive: 0.4%
35 | CC(O)c1nc2ccccc2n1CC(=O)N1CCN(c2ccccc2)CC1 (centres undefined) | inactive: 1%
36 | CCOCN(C(=O)Cn1c(C(C)O)nc2ccccc21)c1c(C)cccc1CC (centres undefined) | inactive: -4.3%
37 | Cc1ccc(N/C(=N/P(=O)(N2CCOCC2)N2CCOCC2)N2CCOCC2)cc1 | inactive: -2.6%
38 | O=C(CSc1nc2ccccc2n1CC(=O)N1CCCCC1)N1CCCCC1 | inactive: 1.7%
39 | NC(=O)c1cc([N+](=O)[O-])cc([N+](=O)[O-])c1N | inactive: 3.4%
40 | CC1CCCN(C(=O)Cn2c(-c3nonc3N)nc3ccccc32)C1 (centres undefined) | inactive: 15%
41 | O=C(Nc1ccccc1)N1CCC(n2c(=O)[nH]c3ccccc32)CC1 | inactive: -0.6%
42 | Cc1ccc2c(c1)C1CN(C)CCC1N2C(=O)c1ccc(Cl)c(S(=O)(=O)N2CCOCC2)c1 (centres undefined) | inactive: 4.1%
43 | Nc1nonc1-c1nc2ccccc2n1CC(=O)N/N=C\c1ccc(-c2ccc(Cl)cc2)o1 | inactive: 5.6%
44 | Cc1ccc(-c2csc(N3CCN(c4ccc5nc(-c6ccncc6)n(CCN6CCCCC6)c5c4)CC3)n2)cc1 | inactive: -2.9%
45 | CCC(C(=O)NC1CCCCC1)n1c(SCc2ccc(F)cc2)nc2ccncc21 (centres undefined) | inactive: -0.1%
46 | CN(C)C(=O)Cn1c(SCC(=O)Nc2ccc3c(c2)OCO3)nc2ccccc21 | inactive: -7%
47 | Cc1ccc(/C=N/NC(=O)Cn2cnc3ccccc32)cc1 | inactive: -1.4%
48 | O=C(Cn1c(NCCO)nc2ccccc21)NCCc1ccccc1 | inactive: 7.7%

Row | SMILES | activation
49 | Clc1ccc(Cl)c(NC2=NCC(CBr)S2)c1 (centres undefined) | inactive: 6%
50 | CN1CCCC(OC(=O)C(c2ccccc2)c2ccccc2)C1 (centres undefined) | inactive: 4.9%
51 | COc1ccc(CNC(=O)CCCCCNC(=O)N2CCn3c2nc2ccccc23)cc1 | inactive: -0.5%
52 | CCOc1cc(N2CCOCC2)c(OCC)cc1NC(=O)Cn1cnc2c(=O)n(C)c(=O)n(C)c21 | inactive: 0.5%
53 | O=C1Cn2c(nc3ccccc32)N1c1cccc(C(F)(F)F)c1 | inactive: 4%
54 | COc1ccc(C(=O)CSc2nc3ccccc3n2CC(=O)NC(C)(C)C)cc1 | inactive: 0.4%
55 | Cc1ccc(OP(=O)(Nc2nccs2)Oc2ccc(C)cc2)cc1 | inactive: -1%
56 | CCC(C)(C)n1nnnc1CN1CCC(n2c(C)nc3cc(C(F)(F)F)ccc32)CC1 | inactive: 3.5%
57 | Cc1nc2cc(F)ccc2n1C1CCN(Cc2nnnn2CCc2ccccc2)CC1 | inactive: 11%
58 | CN1CCN(CCN2CCn3c2nc2ccccc23)CC1 | inactive: -0.4%
59 | O=C(Nc1ccc2c(c1)nc1n2CCN(Cc2ccccc2)C1)c1cccs1 | inactive: 8.2%
60 | O=C(CCC(=O)Nc1ccccc1)N/N=C/C=C/c1ccccc1 | inactive: -1.7%
61 | CC1CN(Cc2nc3c(c(=O)[nH]c(=O)n3C)n2CCN2CCOCC2)CC(C)O1 (centres undefined) | inactive: 1%
62 | Cn1c(=O)c2c(ncn2CC(N)=O)n(C)c1=O | inactive: 1.4%
63 | O=C(Cn1c(-c2cncs2)nc2ccccc21)NCc1ccccc1 | inactive: 0.5%
64 | O=[N+]([O-])c1cc([N+](=O)[O-])c(CCN2CCOCC2)c([N+](=O)[O-])c1 | inactive: -4.9%
65 | COc1ccc(N2C(=O)CC(n3c(CCCCO)nc4ccccc43)C2=O)cc1 (centres undefined) | inactive: -1.8%
66 | O=C(NCCn1c(C(F)(F)F)nc2ccccc21)[C@H]1CCCN1c1nc(CN2CCCCC2)cs1 | inactive: -0.4%
67 | COc1ccc(CC(=O)N2CCC(Nc3nc4ccccc4n3Cc3ccc(F)cc3)CC2)cc1 | inactive: 1.3%
68 | O=C(Cn1c(COc2ccccc2)nc2ccccc21)Nc1cc(Cl)ccc1Cl | inactive: 5.5%
69 | Cc1ccccc1NC(=O)Cn1cnc2c1c(=O)n(C)c(=O)n2C | inactive: 3.6%
70 | COc1ccc(CCNC(=O)Cn2c(-c3nonc3N)nc3ccccc32)cc1OC | inactive: 1.4%
71 | CC(C)NC(=O)Cn1c(SCC(=O)N2CCCCCC2)nc2ccccc21 | inactive: -2.8%
72 | CC(C)C[C@H](NC(=O)N1CCn2c1nc1ccccc12)C(=O)N1CCCCC1 | inactive: 1.7%

Row | SMILES | activation
73 | CC(C)CSc1nc2ccccc2n1CC(N)=O | inactive: -9.7%
74 | Nc1ncnc2c1ncn2C1OC(CO)C(O)C1N (centres undefined) | inactive: 2%
75 | CC1CCCCN1C(=O)CSc1nc2ccccc2n1CC(=O)N1CCc2ccccc21 (centres undefined) | inactive: -6.6%
76 | Cn1c(=O)n(CC(=O)NCc2cccnc2)c2ccccc21 | inactive: -0.7%
77 | O=C(Cn1c(SCC(=O)N2CCc3ccccc3C2)nc2ccccc21)NC1CCCC1 | inactive: -2.3%
78 | O=C(CCCCCNC(=O)N1CCn2c1nc1ccccc12)N[C@@H](Cc1ccccc1)C(=O)O | inactive: -2%
79 | Cn1c(=O)c2c(nc(NCc3ccccc3)n2CC(=O)NCc2ccccc2)n(C)c1=O | inactive: 3%
80 | O=C(Cn1cnc2ccccc21)Nc1cccc([N+](=O)[O-])c1 | inactive: -0.7%
81 | Nc1cccc2ccc([As](=O)(O)O)cc12 | inactive: 2.8%
82 | CCN(CC)CCn1c(=N)n(CCOc2ccccc2)c2ccccc21 | inactive: 1.5%
83 | CC(C)(C)NC(=O)Cn1c(SCC(=O)NC2CCCC2)nc2ccccc21 | inactive: -1.4%
84 | CCN(N=Nc1nonc1N)c1nonc1N | inactive: -2.8%
85 | CCN(CC)CCNC(=O)Cn1c(-c2ccccn2)nc2ccccc21 | inactive: 2%
86 | CCC(=O)Nc1nnc(/C=C/c2ccc(OC)cc2)s1 | inactive: 5.5%
87 | Nc1nonc1-c1nc2ccccc2n1CC(=O)Nc1ccccc1 | inactive: -3%
88 | CC(=O)c1ccc(NC(=O)C2CC(=O)Nc3nc4ccccc4n32)cc1 (centres undefined) | inactive: 1%
89 | COC(=O)C1=C(C)N=C2SCCC(=O)N2C1/C=C/c1ccccc1 (centres undefined) | inactive: 6.4%
90 | CC1CCN(C(=O)Cn2c(SCC(=O)Nc3nccs3)nc3ccccc32)CC1 | inactive: 5%
91 | CCOC(=O)c1ccccc1NC(=O)Cn1c(-c2nonc2N)nc2ccccc21 | inactive: -0.9%
92 | CC(C)NC(=O)CC1C(=O)N(Cc2ccccc2)C(C)c2nc3ccccc3n21 (centres undefined) | inactive: -1.2%
93 | C(=N\c1nc2ccccc2n1CCN1CCCCC1)/c1ccc2c(c1)OCO2 | inactive: 4.4%
94 | O=P(Nc1nc2ccc(Cl)cc2s1)(c1ccccc1)c1ccccc1 | inactive: -0.8%
